These results are taken from ChEMBL document CHEMBL5543160, “Psychoplastogenic DYRK1A Inhibitors with Therapeutic Effects Relevant to Alzheimer's Disease” (J Med Chem, 2024).

Structures are written as SMILES. Active and inactive are the calls of the source. The rule behind the calls is not given here.

This assay addresses Dual specificity tyrosine-phosphorylation-regulated kinase 1A (Homo sapiens, UniProt Q13627). The assay can be described thus: Inhibition of DYRK1A (unknown origin) at 10 uM by DiscoverX KINOMEscan assay.

On to `COc1ccc2c3ccnc(C)c3n(CCN(C)C)c2c1.O=C(O)/C=C/C(=O)O`, for which the inhibition result is “Active”.
